Test results from US20110319464A1, “METHODS FOR TREATING BENIGN PROSTATIC HYPERPLASIA” (KISSEI PHARMACEUTICAL CO., LTD., priority 2007, published 2011).
Values joined by “and” are separate entries in the source; they are usually repeats but may differ in a detail not shown here. Equal entries are not always repeated.

Assay: Pharmacokinetic Study on Silodosin (Study US011), once daily for seven days, fed state
Settings: 8 mg once daily 7 days

Structure (SMILES): C[C@H](Cc1cc2c(c(C(N)=O)c1)N(CCCO)CC2)NCCOc1ccccc1OCC(F)(F)F [Silodosin]
- Blood Plasma Concentrations (Day 7, 0 h (t0), mean): 5.56 ng/mL
- Blood Plasma Concentrations (Day 7, 0.25 h, individual subjects): 2.00 ng/mL and 9.25 ng/mL and 3.64 ng/mL and 13.11 ng/mL and 7.98 ng/mL and 1.60 ng/mL and 9.65 ng/mL and 2.44 ng/mL
- Blood Plasma Concentrations (Day 7, 0.5 h, individual subjects): 2.01 ng/mL and 40.90 ng/mL and 21.98 ng/mL and 5.69 ng/mL and 16.93 ng/mL and 56.28 ng/mL and 11.63 ng/mL and 14.52 ng/mL and 25.23 ng/mL
- Blood Plasma Concentrations (Day 7, 0.5 h, mean): 21.69 ng/mL
- Blood Plasma Concentrations (Day 7, 1 h, individual subjects): 12.58 ng/mL and 46.27 ng/mL and 62.96 ng/mL and 26.49 ng/mL and 113.90 ng/mL and 103.20 ng/mL and 41.51 ng/mL and 24.58 ng/mL and 72.25 ng/mL
- Blood Plasma Concentrations (Day 7, 1 h, mean): 55.97 ng/mL
- Blood Plasma Concentrations (Day 7, 1.5 h, individual subjects): 35.49 ng/mL and 39.01 ng/mL and 55.57 ng/mL and 63.87 ng/mL and 129.20 ng/mL and 127.00 ng/mL and 65.51 ng/mL and 32.58 ng/mL and 63.27 ng/mL
- Blood Plasma Concentrations (Day 7, 1.5 h, mean): 67.94 ng/mL
- Blood Plasma Concentrations (Day 7, 2 h, individual subjects): 42.13 ng/mL and 30.68 ng/mL and 62.78 ng/mL and 62.92 ng/mL and 106.10 ng/mL and 113.80 ng/mL and 54.34 ng/mL and 45.40 ng/mL and 56.03 ng/mL
- Blood Plasma Concentrations (Day 7, 2 h, mean): 63.80 ng/mL
- Blood Plasma Concentrations (Day 7, 3 h, individual subjects): 35.86 ng/mL and 17.49 ng/mL and 47.15 ng/mL and 53.17 ng/mL and 88.84 ng/mL and 61.25 ng/mL and 52.40 ng/mL and 51.86 ng/mL and 33.38 ng/mL
- Blood Plasma Concentrations (Day 7, 3 h, mean): 49.04 ng/mL
- Blood Plasma Concentrations (Day 7, 4 h, individual subjects): 17.49 ng/mL and 10.60 ng/mL and 30.50 ng/mL and 36.46 ng/mL and 72.43 ng/mL and 50.08 ng/mL and 30.19 ng/mL and 35.37 ng/mL and 15.51 ng/mL
- Blood Plasma Concentrations (Day 7, 6 h, individual subjects): 10.20 ng/mL and 8.31 ng/mL and 11.39 ng/mL and 19.22 ng/mL and 57.30 ng/mL and 20.36 ng/mL and 11.08 ng/mL and 18.88 ng/mL and 9.47 ng/mL
- Blood Plasma Concentrations (Day 7, 8 h, individual subjects): 9.68 ng/mL and 7.43 ng/mL and 9.77 ng/mL and 14.50 ng/mL and 42.35 ng/mL and 16.57 ng/mL and 8.40 ng/mL and 15.18 ng/mL and 7.79 ng/mL
- Blood Plasma Concentrations (Day 7, 8 h, mean): 14.63 ng/mL
- Blood Plasma Concentrations (Day 7, 16 h, individual subjects): 2.74 ng/mL and 3.93 ng/mL and 4.72 ng/mL and 5.28 ng/mL and 14.85 ng/mL and 12.73 ng/mL and 3.81 ng/mL and 6.12 ng/mL and 2.33 ng/mL
- Blood Plasma Concentrations (Day 7, 16 h, mean): 6.28 ng/mL
- Blood Plasma Concentrations (Day 7, 24 h, individual subjects): 1.91 ng/mL and 3.91 ng/mL and 3.88 ng/mL and 4.38 ng/mL and 11.65 ng/mL and 9.92 ng/mL and 3.42 ng/mL and 6.89 ng/mL and 1.72 ng/mL
- Blood Plasma Concentrations (Day 7, 24 h, mean): 5.30 ng/mL
- Blood Plasma Concentrations (time 0.0 h (Day 1), individual subjects): 0.00 ng/mL
- Blood Plasma Concentrations (time 0.0 h (Day 1), mean): 0.00 ng/mL
- Blood Plasma Concentrations (time 0.3 h, individual subjects): 2.27 ng/ml and 0.00 ng/ml (7×) and 1.47 ng/ml
- Blood Plasma Concentrations (time 0.3 h, mean): 0.42 ng/mL
- Blood Plasma Concentrations (time 0.5 h, individual subjects): 28.23 ng/mL and 8.54 ng/mL and 5.00 ng/mL and 5.01 ng/mL and 6.16 ng/mL and 1.71 ng/mL and 51.16 ng/mL and 13.85 ng/mL and 0.00 ng/mL
- Blood Plasma Concentrations (time 0.5 h, mean): 13.30 ng/mL
- Blood Plasma Concentrations (time 1.0 h, individual subjects): 65.47 ng/mL and 19.61 ng/mL and 43.31 ng/mL and 57.51 ng/mL and 55.35 ng/mL and 32.22 ng/mL and 83.89 ng/mL and 42.13 ng/mL and 9.29 ng/mL
- Blood Plasma Concentrations (time 1.0 h, mean): 45.42 ng/mL
- Blood Plasma Concentrations (time 1.5 h, individual subjects): 64.19 ng/mL and 32.61 ng/mL and 70.27 ng/mL and 44.48 ng/mL and 65.65 ng/mL and 60.05 ng/mL and 101.60 ng/mL and 44.81 ng/mL and 44.23 ng/mL
- Blood Plasma Concentrations (time 1.5 h, mean): 58.65 ng/mL
- Blood Plasma Concentrations (time 2.0 h, individual subjects): 54.56 ng/mL and 37.94 ng/mL and 59.01 ng/mL and 28.65 ng/mL and 66.47 ng/mL and 73.38 ng/mL and 83.90 ng/mL and 32.81 ng/mL and 54.51 ng/mL
- Blood Plasma Concentrations (time 3.0 h, individual subjects): 25.30 ng/mL and 62.68 ng/mL and 26.08 ng/mL and 23.58 ng/mL and 57.85 ng/mL and 58.16 ng/mL and 50.53 ng/mL and 16.72 ng/mL and 63.97 ng/mL
- Blood Plasma Concentrations (time 4.0 h, individual subjects): 17.15 ng/mL and 15.01 ng/mL and 13.52 ng/mL and 17.81 ng/mL and 40.28 ng/mL and 50.39 ng/mL and 29.05 ng/mL and 11.26 ng/mL and 47.45 ng/mL
- Blood Plasma Concentrations (time 4.0 h, mean): 26.88 ng/mL
- Blood Plasma Concentrations (time 6.0 h, individual subjects): 9.28 ng/mL and 5.62 ng/mL and 7.97 ng/mL and 9.94 ng/mL and 21.95 ng/mL and 25.09 ng/mL and 15.44 ng/mL and 5.48 ng/mL and 36.53 ng/mL
- Blood Plasma Concentrations (time 6.0 h, mean): 15.26 ng/mL
- Blood Plasma Concentrations (time 8.0 h, individual subjects): 7.74 ng/mL and 4.39 ng/mL and 6.60 ng/mL and 6.78 ng/mL and 16.78 ng/mL and 20.37 ng/mL and 9.54 ng/mL and 3.51 ng/mL and 24.21 ng/mL
- Blood Plasma Concentrations (time 8.0 h, mean): 11.10 ng/mL
- Blood Plasma Concentrations (time 12.0 h, individual subjects): 3.94 ng/mL and 2.67 ng/mL and 4.38 ng/mL and 5.42 ng/mL and 8.57 ng/mL and 16.07 ng/mL and 4.83 ng/mL and 1.60 ng/mL and 13.24 ng/mL
- Blood Plasma Concentrations (time 12.0 h, mean): 6.75 ng/mL
- Blood Plasma Concentrations (time 16.0 h, individual subjects): 2.79 ng/mL and 1.66 ng/mL and 2.94 ng/mL and 3.19 ng/mL and 5.41 ng/mL and 12.17 ng/mL and 4.20 ng/mL and 0.95 ng/mL and 9.18 ng/mL
- Blood Plasma Concentrations (time 16.0 h, mean): 4.72 ng/mL
- Blood Plasma Concentrations (time 24.0 h, individual subjects): 1.27 ng/mL and 1.72 ng/mL and 2.80 ng/mL and 2.39 ng/mL and 4.27 ng/mL and 9.38 ng/mL and 3.48 ng/mL and 0.56 ng/mL and 6.96 ng/mL
- Blood Plasma Concentrations (time 24.0 h, mean): 3.65 ng/mL
- Blood Plasma Concentrations (time 48.0 h, individual subjects): 1.72 ng/mL and 2.20 ng/mL and 3.37 ng/mL and 3.35 ng/mL and 2.67 ng/mL and 12.14 ng/mL and 2.71 ng/mL and 1.07 ng/mL and 8.23 ng/mL
- Blood Plasma Concentrations (time 48.0 h, mean): 4.16 ng/mL
- Blood Plasma Concentrations (time 72.0 h, individual subjects): 3.12 ng/mL and 5.69 ng/mL and 2.58 ng/mL and 3.03 ng/mL and 3.72 ng/mL and 3.84 ng/mL and 3.39 ng/mL and 11.41 ng/mL and 7.41 ng/mL
- Blood Plasma Concentrations (time 72.0 h, mean): 4.91 ng/mL
- Blood Plasma Concentrations (time 96.0 h, individual subjects): 3.55 ng/mL and 8.26 ng/mL and 2.86 ng/mL and 1.92 ng/mL and 3.32 ng/mL and 3.43 ng/mL and 3.78 ng/mL and 11.18 ng/mL and 4.50 ng/mL
- Blood Plasma Concentrations (time 96.0 h, mean): 4.76 ng/mL
- Blood Plasma Concentrations (time 120.0 h, individual subjects): 1.75 ng/mL and 8.32 ng/mL and 2.44 ng/mL and 2.09 ng/mL and 3.42 ng/mL and 4.47 ng/mL and 4.71 ng/mL and 12.89 ng/mL and 6.05 ng/mL
- Blood Plasma Concentrations (time 120.0 h, mean): 5.13 ng/mL
- Blood Plasma Concentrations (time 144.0 h (Day 7), individual subjects): 1.95 ng/mL and 6.99 ng/mL and 2.40 ng/mL and 1.90 ng/mL and 4.15 ng/mL and 3.94 ng/mL and 4.87 ng/mL and 15.77 ng/mL and 8.04 ng/mL
- Blood Plasma Concentrations (time 144.0 h (Day 7), mean): 5.56 ng/mL
- Blood Plasma Concentrations (time 144.3 h, individual subjects): 1.60 ng/mL and 9.65 ng/mL and 2.44 ng/mL and 2.00 ng/mL and 9.25 ng/mL and 3.64 ng/mL and 13.11 ng/mL and 7.98 ng/mL
- Blood Plasma Concentrations (time 144.5 h, individual subjects): 11.63 ng/mL and 14.52 ng/mL and 25.23 ng/mL and 2.01 ng/mL and 40.90 ng/mL and 21.98 ng/mL and 5.69 ng/mL and 16.93 ng/mL and 56.28 ng/mL
- Blood Plasma Concentrations (time 144.5 h, mean): 21.69 ng/mL
- Blood Plasma Concentrations (time 145.0 h, individual subjects): 41.51 ng/mL and 24.58 ng/mL and 72.25 ng/mL and 12.58 ng/mL and 46.27 ng/mL and 62.96 ng/mL and 26.49 ng/mL and 113.90 ng/mL and 103.20 ng/mL
- Blood Plasma Concentrations (time 145.0 h, mean): 55.97 ng/mL
- Blood Plasma Concentrations (time 145.5 h, individual subjects): 65.51 ng/mL and 32.58 ng/mL and 63.27 ng/mL and 35.49 ng/mL and 39.01 ng/mL and 55.57 ng/mL and 63.87 ng/mL and 129.20 ng/mL and 127.00 ng/mL
- Blood Plasma Concentrations (time 146.0 h, individual subjects): 54.34 ng/mL and 45.40 ng/mL and 56.03 ng/mL and 42.13 ng/mL and 30.68 ng/mL and 62.78 ng/mL and 62.92 ng/mL and 106.10 ng/mL and 113.80 ng/mL
- Blood Plasma Concentrations (time 147.0 h, individual subjects): 52.40 ng/mL and 51.86 ng/mL and 33.38 ng/mL and 35.86 ng/mL and 17.49 ng/mL and 47.15 ng/mL and 53.17 ng/mL and 88.84 ng/mL and 61.25 ng/mL
- Blood Plasma Concentrations (time 147.0 h, mean): 49.04 ng/mL
- Blood Plasma Concentrations (time 148.0 h, individual subjects): 30.19 ng/mL and 35.37 ng/mL and 15.51 ng/mL and 17.49 ng/mL and 10.60 ng/mL and 30.50 ng/mL and 36.46 ng/mL and 72.43 ng/mL and 50.08 ng/mL
- Blood Plasma Concentrations (time 148.0 h, mean): 33.18 ng/mL
- Blood Plasma Concentrations (time 150.0 h, individual subjects): 11.08 ng/mL and 18.88 ng/mL and 9.47 ng/mL and 10.20 ng/mL and 8.31 ng/mL and 11.39 ng/mL and 19.22 ng/mL and 57.30 ng/mL and 20.36 ng/mL
- Blood Plasma Concentrations (time 150.0 h, mean): 18.47 ng/mL
- Blood Plasma Concentrations (time 152.0 h, individual subjects): 8.40 ng/mL and 15.18 ng/mL and 7.79 ng/mL and 9.68 ng/mL and 7.43 ng/mL and 9.77 ng/mL and 14.50 ng/mL and 42.35 ng/mL and 16.57 ng/mL
